# Experimental data from patent US20060019972A1, “Methods of treating cancer by inhibiting histone gene expression” (California Institute of Technology, priority 2004, published 2006).
# Tested on: human histone H4c gene (radiolabeled PCR product)
# Conditions: polyamide concentrations up to 100 nM
smiles,measurement,value
CN(C)CCCNC(=O)CCNC(=O)c1cc(NC(=O)c2cc(NC(=O)c3cc(NC(=O)c4cc(NC(=O)C(N)CCNC(=O)c5nc(NC(=O)CCNC(=O)c6nc(NC(=O)c7nccn7C)cn6C)cn5C)cn4C)cn3C)cn2C)cn1C (stereo not shown) [1S],binding to the H4c DNA fragment,failed to bind
